Biological target: P62 (Homo sapiens, UniProt Q13501)
Assay: SPR (Biacore T200, His-P62 captured on CM5 chip)

Protein sequences, listed by entry. Tags and fused reporters are not part of them. Residues count along the entry.
UniProt Q13501, 1-356 limits assumed: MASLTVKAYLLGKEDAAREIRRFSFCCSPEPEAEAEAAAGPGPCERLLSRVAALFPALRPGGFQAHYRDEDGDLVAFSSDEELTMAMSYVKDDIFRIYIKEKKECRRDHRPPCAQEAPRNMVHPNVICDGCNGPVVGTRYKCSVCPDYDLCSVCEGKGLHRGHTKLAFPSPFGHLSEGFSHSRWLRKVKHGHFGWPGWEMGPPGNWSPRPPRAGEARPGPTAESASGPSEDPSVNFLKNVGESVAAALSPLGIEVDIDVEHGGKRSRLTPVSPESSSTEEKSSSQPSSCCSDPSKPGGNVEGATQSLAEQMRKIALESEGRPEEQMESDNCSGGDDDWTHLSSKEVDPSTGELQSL

SMILES: O=[As]O[As]=O (stereo not shown)
- Kd: 8.76 nM

From paper PMC6147786, “Arsenic circumvents the gefitinib resistance by binding to P62 and mediating autophagic degradation of EGFR in non-small cell lung cancer” (2018)
